4 substances from paper PMC9520214 (Heliyon, 2022) can be followed below.

Chains of the proteins cited; added tags and fusions are not shown. Residues count along the entry.
UniProt O42275, 24-633: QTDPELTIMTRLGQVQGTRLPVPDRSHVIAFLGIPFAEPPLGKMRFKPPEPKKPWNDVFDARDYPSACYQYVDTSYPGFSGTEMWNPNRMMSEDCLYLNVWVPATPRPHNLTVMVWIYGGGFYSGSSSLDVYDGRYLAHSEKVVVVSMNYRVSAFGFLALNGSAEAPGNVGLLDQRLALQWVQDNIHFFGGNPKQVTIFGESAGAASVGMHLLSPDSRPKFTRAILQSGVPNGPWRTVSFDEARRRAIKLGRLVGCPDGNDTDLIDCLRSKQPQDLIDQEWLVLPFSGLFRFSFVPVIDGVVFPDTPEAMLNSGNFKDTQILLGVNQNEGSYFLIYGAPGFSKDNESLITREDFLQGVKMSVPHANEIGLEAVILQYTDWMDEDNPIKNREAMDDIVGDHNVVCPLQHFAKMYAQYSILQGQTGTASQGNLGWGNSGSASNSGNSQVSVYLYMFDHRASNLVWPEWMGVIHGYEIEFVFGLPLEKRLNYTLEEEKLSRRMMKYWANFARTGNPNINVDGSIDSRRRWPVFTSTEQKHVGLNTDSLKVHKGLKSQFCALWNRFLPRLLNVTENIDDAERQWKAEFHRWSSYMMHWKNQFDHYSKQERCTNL

For this test, the target named is AChE (Electrophorus electricus, UniProt O42275). The class given is biochemical. The conditions noted are these: for IC50: read-out: IC50 AChE; for Ki: read-out: Ki AChE.

The term IC50 denotes the concentration needed to halve the response being measured. A word on the Ki: it is a dissociation constant, usually derived from enzyme kinetics or from competition with a known ligand.

For the substance “dibromo[1,3-dibenzylbenzimidazol-2-ylidene]morpholinepalladium(II) [Complex 6]”, the IC50 turned out to be 25.6 nM and the Ki was 32.1 ± 3.2 nM.
On to “dibromo[1,3-dibenzylbenzimidazol-2-ylidene]pyridinepalladium(II) [Complex 2]”, for which the IC50 stood at 26.6 nM and the Ki was found to be 22.8 ± 3.2 nM.
On the same counts, the results for “dibromo[1,3-dibenzylbenzimidazol-2-ylidene]-3-chloropyridinepalladium(II) [Complex 3]” are 21.6 nM and 24.5 ± 2.9 nM.
On the same counts, the results for “dibromo[1,3-dibenzylbenzimidazol-2-ylidene]-2-aminopyridinepalladium(II) [Complex 4]” are 43.3 nM and 38.6 ± 5 nM.
